## Ab-14 light chain CDR variants: yeast mating affinities

Values reported by Engelhart et al. 2022, doi:10.1038/s41597-022-01779-4 (FLAb copy).

Target: peptide PDVDLGDISGINAS, taken from heptad repeat 2 (HR2) of SARS-CoV-2 spike.

Parent scFv Ab-14: VH joined to VL by the linker GGGGSGGGGSGGGGS. Changes lie in the light chain CDRs alone.
VH: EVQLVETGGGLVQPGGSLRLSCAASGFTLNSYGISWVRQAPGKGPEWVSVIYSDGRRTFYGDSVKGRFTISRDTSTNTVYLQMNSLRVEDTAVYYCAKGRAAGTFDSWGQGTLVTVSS
VL: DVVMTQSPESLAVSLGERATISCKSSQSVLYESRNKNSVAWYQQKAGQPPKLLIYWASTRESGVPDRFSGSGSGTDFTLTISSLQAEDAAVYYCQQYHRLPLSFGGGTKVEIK

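The parent was found by panning a naive human phage display library on the peptide. Variants in AAYL50 differ from the parent at up to three CDR positions; double and triple changes were sampled at random. The assay is AlphaSeq: two haploid yeast populations carry antibody and antigen on their surface. Binding brings cells together so that they mate, and sequencing counts the barcode pairs among the diploids. Scores were corrected for input abundance and mapped to Kd with protein pairs of known affinity run in the same pool. There are three technical replicates.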

Positions count from residue 1 of the parent VL; S26W puts W in place of S. Every variant below is changed at S28 of the VL (sequential numbering). The read-out is the apparent dissociation constant on a log10 scale (nM): the lower, the stronger. Replicates are averaged; those with no signal do not enter the mean. "ND" marks a missing value. The strain was present, yet no cells mated with the target were sequenced in that replicate, which points to weak or no binding. Nonspecific signal, from three strains lacking the peptide, appeared in 18% of pairings of library AAYL50, centred on 4.19 (5% of these signals below 2.99); values are not corrected for it.

- S26W S28M A40T = ND, ND, ND
- S28A V29F W56S = -0.51, 0.07, -0.34 (mean -0.26)
- Q27A S28C A57R = ND, ND, ND
- K24Y Q27T S28M = 2.27, 2.61, 2.59 (mean 2.49)
- S28C K36C Y97Q = 2.63, 2.54, 2.52 (mean 2.56)
- S28P R34E L102I = 1.42, 1.99, 1.76 (mean 1.72)
- S28Y E32C Y97T = ND, ND, ND
- S28V A57Y R60A = 4.16, 4.58, ND (mean 4.37)
- S28T W56Q S62P = -0.08, 0.23, 0.08 (mean 0.08)
- S25R S28Q P101Q = 2.54, 2.91, 2.90 (mean 2.79)
- S28H S33I R34C = 3.04, 2.63, 6.00 (mean 3.89)
- S28N L30P L100E = ND, ND, ND
- S28P E61A L102N = 2.64, 2.34, 2.55 (mean 2.51)
- S28Y A57R T59V = ND, ND, ND
- S28R V29H R34K = 2.19, 2.27, 2.53 (mean 2.33)
- S28V E32P A40I = ND, ND, ND
- S28Q A57K S62A = 2.07, 2.55, 2.57 (mean 2.40)
- K24V S28P L102T = 2.39, 2.23, 2.24 (mean 2.29)
- S28C N37H W56A = 0.81, 1.00, 1.03 (mean 0.95)
- S28M R34C S58G = 3.87, 3.56, 3.25 (mean 3.56)
- S28E A40F S62I = ND, ND, ND
- S28W Y31W S58E = ND, ND, 3.55
- S28E V39T E61Q = ND, ND, 5.46
- S28F Y31L S62P = ND, ND, ND
- S28G N37P V39L = 2.69, 2.62, 2.92 (mean 2.74)
- S28K N37P R99D = 2.92, 2.32, 2.72 (mean 2.66)
- Q27N S28M Q95A = 2.82, 2.79, ND (mean 2.81)
- S28K E32Q E61S = ND, ND, ND
- S26R S28H L100V = 3.51, 2.51, ND (mean 3.01)
- S28M S58G T59D = 2.87, 2.66, 2.99 (mean 2.84)
- S28T S58M = 3.37, 2.13, 2.65 (mean 2.71)
- S28G K36W S38P = 3.11, 2.79, 3.00 (mean 2.97)
- S28Y R60I P101W = ND, ND, ND
- S28P R34T S38F = 2.68, 2.62, 2.63 (mean 2.64)
- Q27D S28G W56S = -0.12, 0.26, -0.05 (mean 0.03)
- S28Y V29E Y31M = 0.53, 0.77, 0.73 (mean 0.68)
- S28V V29M N37E = 1.39, 1.28, 1.37 (mean 1.35)
- S28I V39S = 2.95, 2.87, 3.12 (mean 2.98)
- S28D S58A P101H = ND, ND, ND
- S28A V39F H98P = ND, ND, 6.03

For reference, 3 entries of the list once more:

changes,"replicates, log10 nM","log10 Kd (nM), mean"
S28E A40F S62I,"ND, ND, ND",ND
Q27D S28G W56S,"-0.12, 0.26, -0.05",0.03
S25R S28Q P101Q,"2.54, 2.91, 2.90",2.79

In this assay the parent's reference entry averaged 0.65; its copy inside this library read 1.68.